Consider 4 substances from publication PMC3406060.

Assay [1] deals with IRA homodimer (IRA-Luc/IRA-YFP) (UniProt P06213).
The target in assay [2] is IRA/IGF1R hybrid receptor (IRA-Luc/IGF1R-YFP) (UniProt P06213).
The target of assay [3] is IRB homodimer (IRB-Luc/IRB-YFP) (UniProt P06213).
Assay [4] has as its target IRB/IGF1R hybrid receptor (IRB-Luc/IGF1R-YFP) (UniProt P06213).
Assay [5] deals with insulin receptor (IR), endogenous in MCF-7 and MDA-MB231 cells (human (endogenous in MCF-7 and MDA-MB231)) (UniProt P06213).
For assay [6], the target named is IRA homodimer (IRA-Luc/IRA-YFP) (UniProt P06213). The source holds these as a separate data set.
Assay [7] has as its target IRA/IGF1R hybrid receptor (IRA-Luc/IGF1R-YFP) (UniProt P06213). This is another data set of the same source.
Assay [8] addresses IRB homodimer (IRB-Luc/IRB-YFP) (UniProt P06213). The source holds these as a separate data set.
Assay [9] has as its target IRB/IGF1R hybrid receptor (IRB-Luc/IGF1R-YFP) (UniProt P06213). The source holds these as a separate data set.

Human insulin (actrapid) (ligand): the EC50 of ligand-induced BRET (Luc/YFP on the two ß-subunits) of partially purified receptors came to 2.7 nM in assay [1], 130 nM in assay [2], 2.56 nM in assay [3] and 69.6 nM in [4]. Moreover, the EC50 of PIP3 production (BRET, Luc-Akt-PH and membrane YFP) in living MDA-MB231 cells in [5] amounted to 0.55 nM. The EC50 of ligand-induced BRET (Luc/YFP on the two ß-subunits) of partially purified receptors, series with M1 and M2 in assay [6] came to 2.15 nM; in [7] it was 84.3 nM; in assay [8], 3.68 nM; in assay [9], 48.1 nM.
Turning to aspart (B28Asp-insulin) (ligand), the EC50 of ligand-induced BRET (Luc/YFP on the two ß-subunits) of partially purified receptors in assay [1] is 1.48 nM; in [2], 128 nM; in assay [3] it was 2.97 nM; in assay [4], 34.1 nM. In assay [5], this substance showed an EC50 of PIP3 production (BRET, Luc-Akt-PH and membrane YFP) in living MDA-MB231 cells of 0.59 nM.
For the substance “glargine (A21Gly,B31Arg,B32Arg-insulin) (ligand)”, the EC50 of ligand-induced BRET (Luc/YFP on the two ß-subunits) of partially purified receptors was 2.38 nM in assay [1], 18.1 nM in assay [2], 2.39 nM in assay [3] and 7.6 nM in [4]. Moreover, the EC50 of PIP3 production (BRET, Luc-Akt-PH and membrane YFP) in living MDA-MB231 cells in assay [5] came to 0.78 nM. Besides, the EC50 of ligand-induced BRET (Luc/YFP on the two ß-subunits) of partially purified receptors, series with M1 and M2 in [6] came to 2.04 nM; in [7], 10.2 nM; in assay [8], 3.88 nM; in [9] it was 6.28 nM.
Regarding lispro (B28Lys,B29Pro-insulin) (ligand), the EC50 of ligand-induced BRET (Luc/YFP on the two ß-subunits) of partially purified receptors was 1.65 nM in assay [1], 55.7 nM in assay [2], 2.46 nM in assay [3] and 23 nM in assay [4]. In assay [5], this substance yielded an EC50 of PIP3 production (BRET, Luc-Akt-PH and membrane YFP) in living MDA-MB231 cells of 0.43 nM.
